# Apparent affinities of Ab-14 variants for a coronavirus HR2 peptide

The measurements come from Engelhart et al. 2022 (doi:10.1038/s41597-022-01779-4) through the FLAb antibody collection.

Target peptide (SARS-CoV-2 spike, HR2 region): PDVDLGDISGINAS

Each scFv is VH, a 15-residue (Gly4Ser)3 linker, VL, as in the parent Ab-14, and differs from it in the CDRs of the light chain only.
VH: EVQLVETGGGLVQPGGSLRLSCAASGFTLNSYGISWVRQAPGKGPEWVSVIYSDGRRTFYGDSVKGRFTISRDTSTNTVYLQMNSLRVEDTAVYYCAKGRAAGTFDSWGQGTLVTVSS
VL: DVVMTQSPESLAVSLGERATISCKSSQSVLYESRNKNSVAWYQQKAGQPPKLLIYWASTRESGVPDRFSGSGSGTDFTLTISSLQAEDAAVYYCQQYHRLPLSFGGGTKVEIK

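The starting antibody came from a phage panning campaign against this peptide. In library AAYL50, one, two or three CDR residues were substituted; doubles and triples were drawn at random. AlphaSeq pools MATa yeast showing the antibodies with MATalpha yeast showing the peptide. After mating in shaken culture at 30 °C for 16 h, diploids were selected and their barcode pairs sequenced. The ratio of observed to expected reads was calibrated, replicate by replicate, on BCL2-family standards whose Kd was known from biolayer interferometry. There are three technical replicates.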

Positions count from residue 1 of the parent VL; S25A puts A in place of S.
All variants listed here change Q27 of the VL, counted from its first residue.
Numbers give log10(Kd / nM), so 0 is 1 nM and 3 is 1 µM. Smaller is tighter.
An entry "ND" has no value in the source: the pair was not observed among the diploids in that replicate. This suggests poor binding but is not conclusive.
Background: pairings of library AAYL50 with three empty control strains gave a value in 18% of cases (median 4.19, 5th percentile 2.99). Values in that range, when seen in few replicates, are hard to tell from nonspecific mating. The control count says in how many pairings with the empty strains this scFv gave a signal.
For reference, the parent read 0.65 as the reference entry and 1.68 as a member of this library.

Variant S25A+Q27R+V39N gave ND, 4.36, ND (controls 1 of 9). With Q27A+P101V+L102A the result was 2.51, 1.78, 1.83 (controls 2 of 9). With Q27V+E32T+R34Y the result was ND, 4.52, ND (controls 3 of 9). With Q27G+N37E+Q96M the result was 2.72, 2.48, 2.19 (controls 3 of 9). Variant Q27S+L102A gave 0.99, 1.27, 1.18 (controls 3 of 9). Variant K24T+Q27T+A40S showed ND, ND, ND (controls 1 of 9).

Variant Q27D+S28M+E32S showed 1.84, 1.94, 1.48 (controls 3 of 9). For Q27V+A40S+Q95N, the assay gave ND, ND, ND (controls 1 of 9). With Q27M+E32P+V39M the result was 0.99, 0.84, 1.01 (controls 0 of 9). Variant Q27W+R60Q+S103P gave ND, ND, ND (controls 0 of 9). With Q27H+L30M+A40E the result was ND, ND, ND (controls 0 of 9). For Q27C+S28Q+L102N, the assay gave ND, 2.86, ND (controls 4 of 9).

With Q27Y+Y31E+K36M the result was 0.27, 0.58, 0.48 (controls 6 of 9). Variant Q27C+V39Q+E61P showed ND, ND, 3.78 (controls 5 of 9). With Q27S+Y97Q the result was 1.73, 1.74, 1.82 (controls 4 of 9). Variant Q27T+E61P+Y97E showed ND, ND, ND (controls 1 of 9). Variant Q27K+Y31P+K36V gave 0.83, 0.86, 1.13 (controls 0 of 9). For Q27A+S62F+Q96E, the assay gave 3.88, ND, ND (controls 2 of 9).

Variant Q27K+S62G+R99L gave 5.06, 3.04, 2.64 (controls 1 of 9). Variant S26Y+Q27F+K36A gave 0.94, 1.37, 1.42 (controls 0 of 9). For Q27N+A57V+L100D, the assay gave ND, ND, 5.42 (controls 3 of 9). For Q27H+R34S+Q95V, the assay gave 0.73, 0.87, 1.03 (controls 0 of 9). For Q27N+N35K+N37C, the assay gave ND, 3.49, ND (controls 2 of 9). Variant Q27T+S58Y+R60A showed ND, 4.26, ND (controls 2 of 9).

Variant S26P+Q27L+L30Q gave 1.29, 1.65, 1.56 (controls 4 of 9). Variant Q27P+S33R+L102S showed ND, 3.55, ND (controls 0 of 9). Variant Q27R+L30C+K36W showed 2.96, 2.84, 2.96 (controls 8 of 9). Variant Q27H+N37V+S62V showed 2.99, 2.70, 3.13 (controls 0 of 9). Variant K24H+Q27C+V29F gave 1.32, 1.52, 1.38 (controls 0 of 9). With Q27H+S58T+L102P the result was ND, ND, ND (controls 1 of 9).

With Q27T+E32M the result was 2.11, 2.26, 1.66 (controls 1 of 9). For Q27A+R60V+E61L, the assay gave 5.06, 3.17, 3.07 (controls 1 of 9). Variant Q27D+E32L+H98G showed 1.38, 1.40, 1.34 (controls 1 of 9). For Q27H+S58W+Q95Y, the assay gave ND, ND, ND (controls 1 of 9). Variant Q27P+A57K+L100C showed 1.97, 1.65, 1.67 (controls 4 of 9). Variant Q27A+N37F+V39K gave ND, ND, 3.38 (controls 2 of 9).

With Q27Y+Y31T the result was 0.45, 0.68, 0.54 (controls 4 of 9). Variant Q27Y+S38V+V39E showed ND, ND, ND (controls 1 of 9). Variant S25Y+Q27M+R99D showed 3.86, ND, ND (controls 0 of 9). Variant Q27L+L30S showed 0.58, 0.95, 0.75 (controls 3 of 9). Variant Q27L+S58I+Q96W gave ND, 3.81, ND (controls 2 of 9). Variant Q27L+S38D+T59Y gave 2.76, 2.03, 2.60 (controls 2 of 9).

Variant Q27E+L30T+L100W showed 3.28, 2.69, ND (controls 3 of 9). With S25R+Q27L+S28L the result was ND, ND, ND (controls 1 of 9). Variant Q27H+E32A+S38G gave ND, ND, ND (controls 1 of 9). With Q27V+S28W+A57L the result was ND, ND, ND (controls 3 of 9). For Q27N+N35V+Q96F, the assay gave 1.94, 2.21, 1.87 (controls 1 of 9). With S25M+Q27D+V29G the result was 0.12, 0.47, 0.24 (controls 0 of 9).

For Q27R+S28K+K36H, the assay gave 2.37, 2.09, 2.29 (controls 0 of 9).

For reference, 4 entries of the list once more:

| changes | log10 Kd (nM) by replicate | empty controls |
|---|---|---|
| Q27H+S58T+L102P | ND, ND, ND | 1 of 9 |
| Q27H+E32A+S38G | ND, ND, ND | 1 of 9 |
| S25Y+Q27M+R99D | 3.86, ND, ND | 0 of 9 |
| Q27Y+Y31E+K36M | 0.27, 0.58, 0.48 | 6 of 9 |